Values of other authors as cited in US10314915B2, “Catechin bioavailability enhancer comprising cyclodextrin” (AMOREPACIFIC CORPORATION, priority 2012, dated 2019).

Settings: generally known

catechin
catechin absorbed in intestines, level of the intake: less than 2%
